Holding throughout (type): cell-based, mouse
Assay [1] deals with BMP response element (BRE from Id1 promoter) luciferase reporter. Kind of assay: BRE luciferase reporter gene assay in C2C12 cells. The note with it: endogenous cGKI, 1 nmol/l BMP-2 and/or 1 μmol/l or 100 μmol/l 8-Br-cGMP, 24 hrs. As for the experimental part: (§1) FIG. 7. cGMP/cGKI pathway stimulates BMP-2 signaling via Smad1/5 (A and B) C2C12 cells were co-transfected with pBRE-luc, pRL-TK and cGKI variants and stimulated with BMP-2 or left untreated. Luciferase activity was measured and error bars result from the mean of duplicate measurements. […] Expression of cGKIα/β was controlled by immunoblot using α-cGKI antibody. (C) As in (A and B) except that reporters were co-transfected with sh-cGKI, sh-cGKI mix and sh-control into C2C12 cells. BRE driven luciferase activity was measured and error bars represent deviation of the mean of duplicate measurements. […] (D) C2C12 cells were transfected with BRE-luc and pRL-TK and stimulated with BMP-2 and/or 8-Br-cGMP. Luciferase activities are represented as mean of each value and standard deviations result from duplicate measurements. […] The mRNA amount of Id1 was analyzed using Id1 specific primers including the control of applied cDNA by PCR using β-actin specific primers. […] BRE driven luciferase activity was measured, standard deviations result from duplicate measurements. […] Lysates were pooled and immunoblotted for expression of cGKIα and TFII-I. (G) As in (E) except that mRNA amount of cGKI was analyzed using cGKI specific primers. […] Results were quantified using ImageJ. cGKI mRNA expression was normalized relative to β-actin. […] The PDGF- or serum-induced proliferation was measured. […]
Background: A reporter such as luciferase makes a cellular process visible.

The subject of assay [2] is Id1 promoter. Nature of the assay: Chromatin immunoprecipitation (ChIP) at the Id1 promoter in C2C12 cells. As to conditions: BMP-2 stimulation 4 hrs, versus unstimulated cells. The procedure:
FIG. 6. cGKI, Smad1 and TFII-I co-localize at the Id1 promoter after stimulation with BMP-2 (A, B and C) C2C12 cells were stimulated with BMP-2 and/or 8-Br-cGMP or left unstimulated (−). Chromatin immunoprecipitation (ChIP) was performed using (A) α-cGKI or α-Smad1 antibody or (B) α-Smad1 followed by α-cGKI antibody and vice versa or (C) α-Smad1 followed by α-TFII-I antibody and vice versa. Subsequent PCR identified a co-precipitated Id1 promoter sequence using specific primers. The applied amount of DNA for ChIP is shown in lane 1. To exclude unspecific outcome control samples were run (for ChIP: no antibody, IgG, α-GFP antibody; for two-step ChIP: α-respective antibody followed by IgG; for unspecific amplification via PCR: no template). […] C2C12 cells were stimulated with BMP-2 for 4 h or left unstimulated. Endogenous chromatin immunoprecipitations (ChIP) of a specific Id1 promoter fragment was performed using α-Smad1 and α-cGKI antibodies (left). […] (D) Endogenous complexes with cGKI from C2C12 cells were analyzed with α-TFII-I, α-Smad1 and α-Smad4 antibodies and a lysate aliquot was monitored for protein expression. (E) Smad1/TFII-I association was analyzed in 293T cells expressing both proteins. […]
ChIP was performed as described previously (Weiske and Huber, 2006) with minor modifications. […] PCR products were separated on 8% PA gels and analyzed under UV light.

Assay [3] deals with Id1. Kind of assay: BMP-2 target gene assay (RT-PCR), Id1 mRNA in C2C12 cells. As to conditions: 20 nmol/l BMP-2 and/or 1 μmol/l 8-Br-cGMP, 4 hrs. The procedure: as §1
Assay [4] deals with cGKI. Nature of the assay: BMP-2 target gene assay (RT-PCR), cGKI mRNA in C2C12 cells. The note with it: four hours of stimulation with BMP-2. The procedure: as §1
Assay [5] deals with cGKI. Nature of the assay: Immunofluorescence microscopy of cGKI localization in C2C12 cells. As to conditions: stimulation for 30 min. As for the experimental part:
FIG. 3. cGKI detaches from the receptor complex and undergoes nuclear translocation upon BMP-2 stimulation (A and B) 293T cells were co-transfected with cGKIβ and HA-tagged BRII-SF (A) or HA-BRII-LF (B). Cells were stimulated with BMP-2 from 5 to 60 min. cGKIβ was immunoprecipitated from cell lysates followed by immunoblot using α-HA antibody. Protein expression was controlled by immunoblotting with α-cGKI and α-HA antibodies. These experiments are exemplarily (n>3). Results for cGKIβ/BRII-SF were quantified using ImageJ and error bars represent deviation of the mean of two experiments. (C) Immunofluorescence staining of cGKI in C2C12 cells after stimulation with BMP-2 or 8-Br-cGMP. DNA was stained using Hoechst dye.
For co-localization studies, C2C12 cells stably expressing N-terminally HA-tagged BRII-SF or BRII-LF were stained as described in (Gilboa et al., 2000). Analysis was done with 63-fold magnification at a Leica DMR (Leica) confocal microscope. To examine the protein localization C2C12 cells or transfected 293T cells were starved for 3 hrs and either stimulated with 10 or 20 nmol/l BMP-2 and/or 1 mmol/18-Br-cGMP for 30 min or for 5 to 60 min or left untreated. Indirect immunofluorescence was performed as described in (Bengtsson and Wilson, 2006). Cells were analyzed using fluorescence microscopy (63-fold magnification, Axiovert 200M, Zeiss).

As to “BMP-2: Bone Morphogenetic Protein 2, BMP-receptor ligand used for stimulation”, in assay [1], the “BRE reporter gene activity upon stimulation” value is recorded as “strongly induced”. Further, in assay [2], the “association of Smad1 and cGKI with the Id1 promoter” value was determined as 5 fold. The “induction of Id1 mRNA” value in assay [3] is “more than 2 fold”. For the same substance, the “upregulation of cGKI mRNA (factor)” value in assay [4] stood at 2. Further, the “nuclear translocation of endogenous cGKI” value in assay [5] is given as “induced nuclear translocation”.
